Source: patent US9399032B2, “Methods and compositions for treating degenerative and ischemic disorders” (The General Hospital Corporation, priority 2009, dated 2016)

System: MCH58 fibroblasts
Experiment: Glucose versus galactose cell growth screen (metabolic state-dependent lethality)
Conditions: for Sglu/gal (log10 fold change) Score: approximately 10 μM compound, 72 hours, log10 fold change of normalized cell number in glucose versus galactose

Row | Molecule | Sglu/gal (log10 fold change) Score | inhibitory activity against cell growth in galactose (SAR analysis) (galactose versus glucose)
1 | CC(=O)Oc1ccc(C(c2ccc(OC(C)=O)cc2)c2ccccn2)cc1 [Bisacodyl] | 0.18 | 
2 | Thiethylperazine malate | 0.15 | more active than flufenazine
